Our source for the viability change, negative = cytotoxic and activity change, negative = cytotoxicity values is PubChem BioAssay (Tox21).

Test [1] in a line: cAMP Responsive Elements (CRE) small molecule antagonists, cell-based qHTS assay: qHTS cell viability counter screen (AID 2060913). Further: nearly all actives have a fitted effect of over 40% in size. To be noted: CRE-bla HEK293T viability, CellTiter-Glo luminescence, 5 h; at 92.4 µM (top of the series). An excerpt:
U.S. Tox21 Program National Center for Advancing Translational Sciences [NCATS] Division of Preclinical Innovation [DPI] U.S. Environmental Protection Agency [EPA] National Institutes of Environmental Health Sciences [NIEHS] National Toxicology Program [NTP] U.S. Food and Drug Administration [FDA] Tox21 Assay Overview: CREB (cyclic-AMP Responsive Element Binding Protein) is a cellular transcription factor. It binds to certain DNA sequences called cAMP Responsive Elements (CRE) and regulates the transcription of the genes. […] This cell line can be used to find agonists/antagonists of the cyclic AMP signaling pathway. The activation of the report gene under culture conditions can be detected by fluorescence intensity. This cell line has been used to screen the Tox21 10K compound library to identify agonists that induce oxidative stress. The cytotoxicity of the Tox21 compound library against the CRE-bla cell line was tested in parallel by measuring the cell viability using CellTiter-Glo assay (Promega, Madison, WI) in the same wells.
Tox21 Assay Protocol Summary: CRE-bla Hek 293T cells were suspended in assay medium (DMEM containing 10% dialyzed FBS, 0.1 mM NEAA, 1 mM sodium pyruvate and 25 mM HEPES) and dispensed at 2,000 cells/4 uL /well into 1536-well black wall/clear bottom plates using a Multidrop Combi (ThermoFisher Scientific, Waltham, MA) dispenser. […] The plates were incubated at room temperature for 2 h, then fluorescence intensities were measured using an Envision plate reader (PerkinElmer, Shelton, CT) at Excitation 405nm, Emission 460nm and 530nm. The % activity was determined from the ratio of 460nm/530nm. For cell viability readout that measures cytotoxicity, 4 uL /well of CellTiter-Glo reagent was added into the assay plates using Bioraptr FRD. After 30 min incubation at room temperature, the luminescence intensity in the assay plates was measured using a ViewLux (PerkinElmer, Shelton, CT) plate reader.
For orientation: Quantitative high-throughput screening tests each substance at several concentrations.

Test [2] can be described thus: cAMP Responsive Elements (CRE) small molecule agonists, cell-based qHTS assay: qHTS cell viability counter screen (AID 2060914). Further: nearly all actives have a fitted effect of over 50% in size. The note with it: CRE-bla HEK293T viability, CellTiter-Glo luminescence, 5 h. Put shortly: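 HEK 293T CRE-bla; DMEM + 10% dialyzed FBS, 25 mM HEPES; 18 h pre-incubation; compound 3 h, 37 °C/5% CO2; CellTiter-Glo added after reporter read; luminescence after 30 min RT.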

The structures appear in SMILES notation. Only a part is listed here, and it is no random draw. Inconclusive results are not listed. Activity calls are given as the source filed them. The call rests on the fitted dose curve; in most records, active means well fitted cell-killing curve with a large enough effect in the repeat runs; inconclusive means weak or mixed curves, or effect the other way; inactive means flat fitted curve, though single readings scatter.
On the % scale 0 is the no-effect control and ±100 the full control effect.

In the case of `CCC(=O)N(c1ccccc1)C1(COC)CCN(CCc2cccs2)CC1`, the viability change, negative = cytotoxic in test [1] was inactive: -15.3%. Moreover, in test [2] (at 92.4 µM (top of the series)), the activity change, negative = cytotoxicity is inactive: 0.273%.
For the compound `CCC(=O)N(c1ccccc1)C1(COC)CCN(CCn2nnn(CC)c2=O)CC1`, the viability change, negative = cytotoxic in test [1] was inactive: -2.46%. The activity change, negative = cytotoxicity in test [2] (at 92.4 µM (top of the series)) was inactive: -2.11%.
As to `CN(CCCl)CCCl`, the activity change, negative = cytotoxicity in test [2] (at 42.5 µM (top of the series)) was inactive: 9.46%; in test [2] (at 92.4 µM (top of the series)), inactive: 4.47%.
As to `O=[N+]([O-])C(Cl)(Cl)Cl`, the viability change, negative = cytotoxic in test [1] was inactive: -2.18%. Besides, the activity change, negative = cytotoxicity in test [2] (at 92.4 µM (top of the series)) was inactive: -9.43%.
